Measurements: patent US10954503B2, “Antidotes for factor Xa inhibitors and methods of using the same” (Alexion Pharmaceuticals, Inc., priority 2007, dated 2021)
Where “and” joins values, the source holds several entries; their conditions need not be identical. Equal entries are not always repeated. Entries after “also recorded” stand apart in the source; their conditions may differ. Each block holds one molecule with its values, some of them ahead of it.

Experiments:
thrombin generation = assay: Thrombin generation assay in platelet poor or platelet rich plasma (RFU); format: biochemical, human; conditions: 680 nM antidote; varying concentrations of betrixaban
Protocol: In this example, human platelet poor or platelet rich plasma samples were prepared from blood of healthy donors drawn into 0.32% citrate. PRP and PPP were prepared by spinning the anticoagulated blood at ˜100×gravity or 1000× gravity for 20 minutes, respectively, at room temperature. 75-100 microliter (uL) plasma was mixed with CaCl2) and Z-Gly-Gly-Arg-aminomethylcoumarin (Z-GGR-AMC, a thrombin fluorogenic substrate). Tissue factor (Innovin, Dade Behring) was added to initiate the generation of thrombin. For a typical experiment, the reaction mixture contained 15 millimolar (mM) Ca′, 100 micromolar (04) Z-GGR-AMC, and 0.1 nanomolar (nM) tissue factor (TF) (Innovin). Thrombin formation was monitored continuously at 37° C. by a fluorometric plate reader (Molecular Devices) measuring the relative fluorescence units (RFU). Inhibitor and antidote, when present, were pre-incubated with plasma for 20 minutes at room temperature before initiation of thrombin generation.

[1] = test system: clot formation in human plasma; assay: Clotting prolongation assay, 96-well plate format (OD405 turbidity change); format: biochemical
Protocol: (§1) Two clotting assay formats were used to test the effects of factor Xa inhibitors and the antidote on clotting prolongation. In the first format, a 96-well plate was used to measure multiple samples at the same time. In the second assay format, aPTT was measured with a conventional coagulation instrument (MLA Electra 800 automatic coagulation timer).
In the 96-well plate format method, human platelet poor plasma or platelet rich plasma was prepared similarly as procedures in Example 2. 75-100 μL plasma was recalcified with CaCl2), incubated at 37° C. for 3 minutes and clot formation was initiated by adding tissue factor (Innovin, Dade Behring) or an aPTT reagent (Actin FS, Dade Behring). Change of OD405 was monitored continuously by a plate reader (Molecular Devices). Clotting time was defined as the time (second) when the half maximal value of absorbance (OD405 nm) change was reached. Factor Xa inhibitor and antidote, when present, were pre-incubated with plasma at room temperature for 20 minutes before initiation of the reaction.
Turbidity changes were measured according to procedures described in Example 3.

aPTT of human plasma = assay: aPTT clotting assay with MLA Electra 800 automatic coagulation timer; format: biochemical
Protocol: as §1
The effect of 1 antiXa Unit/mL LMWH on aPTT prolongation of plasma and the reversal of inhibitory effect was measured by a MLA Electra 800 Automatic coagulation timer. 100 μL pooled citrate anticoagulated human plasma was mixed with enoxaparin and different concentrations of antidote. Prior to measurement of clotting time, aPTT reagent (Actin FS, Dade Behring) and CaCl2) were added per manufacturer's instructions.

[2] = Binding affinity of antidote to betrixaban (nonlinear regression of initial velocities); conditions: read-out: Kd (binding affinity with betrixaban)
Protocol: After incubation at room temperature for 20 minutes, 100 μM Spectrozyme-fXa (a factor Xa chromogenic substrate, American Diagnostica) was added to the mixture and the rate of substrate cleavage was monitored continuously for 5 minutes at 405 nanometer (nm) by a plate reader. In FIG. 5, the chromogenic activity was normalized to active fXa in the absence of any inhibitor.

human thrombin = molecular target: T1, human thrombin (Homo sapiens, UniProt P00734); assay: Thrombin chromogenic assay (S2288) with or without argatroban; format: biochemical; conditions: thrombin 5 nM; argatroban 50 nM; antidote up to 538 nM
T1 construct: catalyzes the conversion of prothrombin to thrombin
Protocol: The effect of the antidote des-Gla anhydro-fXa on thrombin activity toward a chromogenic substrate S2288 (200 μM) was measured similarly as before with or without Argatroban, a specific small molecule IIa inhibitor.
After incubation at room temperature for 20 min, an amidolytic substrate 52288 (200 uM) was added to the mixture and the rate of p-nitroanilide substrate cleavage was monitored by absorbance at 405 nm.

whole blood INR = assay: In vivo mouse model, whole blood INR after oral betrixaban and IV antidote; parameters: species or system male C57Bl/6 mice; conditions: for % Correction / Expected INR / Measured INR: mean
Protocol: 15 mg/kg was used for antidote treated group.

Purified fXa = Purified fXa (Homo sapiens, UniProt P00742); assay: In vitro correction of inhibition of purified fXa by fXa inhibitors; format: biochemical
Protocol: As expected, the antidotes contemplated by this invention were also able to bind and neutralize other active site directed fXa inhibitors. […] Purified fXa (3.0 nM), inhibitor (7.5 nM), and different concentrations of antidote were incubated for 10 min at 22° C. in a buffer with 20 mM Tris, 150 mM NaCl, 0.1% BSA, pH7.4. fXa activity was assayed similar to Example 4.

[3] = test system: prothrombin time of pooled human plasma; assay: Prothrombin time (PT) human plasma clotting assay; format: biochemical; conditions: 1.9 μM recombinant antidote
Protocol: In FIG. 20, the effect of recombinant antidote protein on reversal of anticoagulation by a small molecule factor Xa inhibitor (rivaroxaban, Bay 59-7939) was tested in a human plasma clotting assay. As reported by Perzborn et al, J. Thromb. Haemost. 3:514-521, 2005; prothrombin time measurements are an accurate method for evaluating the anticoagulant effect of rivaroxaban. The effect of 1 μM rivaroxaban on prothrombin time (PT) prolongation of pooled human plasma and the reversal of inhibitory effect was measured by a MLA Electra 800 Automatic coagulation timer. 100 μL pooled citrate anticoagulated human plasma was mixed with rivaroxaban and different concentrations of antidote. Prior to measurement of clotting time, rabbit brain Thromboplastin C Plus reagent (Dade Behring) was added to plasma samples per manufacturer's instructions. Addition of 1.9 μM recombinant antidote produced a 100% correction of anticoagulation produced by 1 μM rivaroxaban.
In Table F, the effect of recombinant antidote protein on reversal of anticoagulation by apixaban was tested in a human plasma clotting assay. […] The effect of 1 μM and 1.5 μM apixaban on prothrombin time (PT) prolongation of pooled human plasma and the reversal of inhibitory effect was measured by a MLA Electra 800 Automatic coagulation timer. […]

[4] = Pharmacokinetics of antidote in rat; format: in vivo, Sprague-Dawley rats; conditions: SD rats
Protocol: One milligram of antidote was administered as a short intravenous infusion over five minutes to four Sprague-Dawley rats. Serial plasma samples were collected and analyzed for antidote concentration using an enzyme-linked immunosorbent assay (ELISA). Plasma concentration-time profiles of the antidote can be described by a two compartment model. […] Because of the need to immediately maintain antidote plasma concentration above that of a factor Xa inhibitor (the anticoagulant), the distribution half-life is expected to have a much bigger impact than the terminal half-life on the dose selection during an overdose treatment.

[5] = Pharmacokinetics of antidote in rhesus monkey; format: in vivo; conditions: rhesus monkeys; 10 mg IV over ten minutes; listed as recombinant antidote
Protocol: Two animals were each dosed with 10 mg antidote by intravenous dosing over a ten minute period. Plasma samples for determination of T1/2 were carried out in a manner similar to that in the rat study.

EC50 (aPTT of human plasma; with 400 nM betrixaban, read-out: EC50 of the antidote): ~656000 pM
Kd [2]: 319 pM and 320 pM
correction of the inhibitory effects of tested inhibitors (Purified fXa; 204 nM pd-Antidote, betrixaban, rivaroxaban, apixaban 7.5 nM): at least 60%
Molecule: pd-Antidote: des-Gla anhydro fXa derivative, SEQ ID NO. 10; chymotryptic digestion of anhydro-fXa removes Gla-domain residues 1-44
reversal of the anticoagulant activity of betrixaban (thrombin generation): complete reversion; also recorded: substantially complete restoration of fXa activity
effect on the anticoagulant activity of enoxaparin ([1]; enoxaparin 0.3125-1.25 U/mL, 563 nM antidote, aPTT reagent): capable of reversing the anticoagulant activity; also recorded: significantly neutralized
antidote concentration for return of aPTT to near normal level of control plasma (aPTT of human plasma; 400 nM betrixaban): higher than 1610 nM
effect on aPTT of control plasma (aPTT of human plasma; antidote alone, highest concentration tested 2576 nM): no effect
effect on thrombin activity and its inhibition by argatroban (human thrombin): did not exhibit significant antidote activity; also recorded: does not detectably affect
reduction of functional betrixaban based on INR measurements (whole blood INR; betrixaban 15 mg/kg PO, single IV injection of antidote 300 ug, […]): > 50%
% Correction (whole blood INR; pd-Antidote treated mice, […]): 7.2%
Expected INR (whole blood INR; pd-Antidote treated mice, […]): .0
Measured INR (whole blood INR; pd-Antidote treated mice, […]): .9

reversal of apixaban (Purified fXa; 186 nM r-Antidote, apixaban): > 70%
B1: r-Antidote: fXa derivative lacking residues 6-39 of SEQ ID NO. 3, S379A, expressed in CHO cells, after removal of the linker (SEQ ID NO. 13) (protein)
chain: ANSFLFWNKYKDGDQCETSPCQNQGKCKDGLGEYTCTCLEGFEGKNCELFTRKLCSLDNGDCDQFCHEEQNSVVCSCARGYTLADNGKACIPTGPYPCGKQTLERIVGGQECKDGECPWQALLINEENEGFCGGTILSEFYILTAAHCLYQAKRFKVRVGDRNTEQEEGGEAVHEVEVVIKHNRFTKETYDFDIAVLRLKTPITFRMNVAPACLPERDWAESTLMTQKTGIVSGFGRTHEKGRQSTRLKMLEVPYVDRNSCKLSSSFIITQNMFCAGYDTKQEDACQGDAGGPHVTRFKDTYFVTGIVSWGEGCARKGKYGIYTKVTAFLKWIDRSMKTRGLPKAKSHAPEVITSSPLK
correction of the inhibitory effect of enoxaparin ([1]; 50 nM r-Antidote, 1.25 U/mL enoxaparin): > 75%
correction of the inhibitory effect of enoxaparin ([1]; 508 nM r-Antidote, 0.3125-1.25 U/mL Enoxaparin): > 75%
correction of ex vivo whole blood INR (whole blood INR; betrixaban 15 mg/kg PO, single IV injection of r-antidote): > 50%
% Correction (whole blood INR; r-Antidote treated mice, […]): 7.3%
Expected INR (whole blood INR; r-Antidote treated mice, […]): .0
Measured INR (whole blood INR; r-Antidote treated mice, […]): .3
correction of anticoagulation ([3]; 1 μM rivaroxaban): 100%
correction of anticoagulation ([3]; […] apixaban): 97%
plasma half life of clearance (T1/2) [4]: 19 min
plasma half life of clearance (T1/2) [5]: 30 min
